Earlier results as cited in PMC4579270, “Identification and Characterization of an Irreversible Inhibitor of CDK2” (Chemistry & Biology, 2015).

System: CDK2
Conditions: ref Hardcastle et al., 2004; cited from earlier work

For `CS(=O)(=O)c1ccc(Nc2nc(OCC3CCCCC3)c3nc[nH]c3n2)cc1` [NU6155, 6-(cyclohexylmethoxy)-N-(4-(methylsulfonyl)phenyl)-9H-purin-2-amine], the “inhibition of CDK2 (in words)” value is listed as “nanomolar”.
